# Measured values published in PMC8547461, “An Intracellular Sensing and Signal Transduction System That Regulates the Metabolism of Polycyclic Aromatic Hydrocarbons in Bacteria” (mSystems, 2021).
# What was measured:
# [1] = tested on: DPR-1^L93A/D94A/T101A/L102A; assay: SPR binding of c-di-GMP to mutated DPR-1; design: species or system Cycloclasticus sp. strain P1; conditions: quadruple mutated DPR-1
# [2] = target: DPR-2^L91A/D92A/T99A/L100A; assay: SPR binding of c-di-GMP to mutated DPR-2; design: species or system Cycloclasticus sp. strain P1; conditions: quadruple mutated DPR-2
smiles,measurement,setting,value
"Nc1nc2c(ncn2C2OC3COP(=O)(O)OC4C(COP(=O)(O)OC3C2O)OC(n2cnc3c(=O)[nH]c(N)nc32)C4O)c(=O)[nH]1 (stereo not drawn) [c-di-GMP, cyclic dimeric GMP]",Ka,[1],4.33e3 M^-1S^-1
same,Kd,[1],1.53e-2 S^-1
same,Kd,[2],2.34e-2 S^-1
